Test [1] is filed under the species Homo sapiens. Nature of the test: Selectivity ratio of Ki for human dopamine D2 receptor to human dopamine D1 receptor.
Test [2] is filed under the species Homo sapiens. Nature of the test: Selectivity ratio of Ki for human dopamine D3 receptor to human dopamine D1 receptor.
Test [3] is filed under the species Homo sapiens. Nature of the test: Selectivity ratio of Ki for human sigma1 receptor to human sigma2 receptor.
Test [4] is filed under the species Homo sapiens. Nature of the test: Selectivity ratio of Ki for human dopamine D2 receptor to human dopamine D3 receptor.
For a further test, the target named is D(2) dopamine receptor (Homo sapiens, UniProt P14416). Nature of the test: Displacement of [3H]N-methylspiperone from human dopamine D2 receptor by PDSP assay. In general terms: Loss of bound radioactivity is the signal in a displacement assay; it reports binding, not function.
Test [5] addresses Sigma non-opioid intracellular receptor 1 (Homo sapiens, UniProt Q99720). Nature of the test: Displacement of [3H](+)-pentazocine from human sigma1 receptor by PDSP assay.

By UniProt entry, the sequences of proteins in these tests, tags left out.
UniProt P14416, whole entry: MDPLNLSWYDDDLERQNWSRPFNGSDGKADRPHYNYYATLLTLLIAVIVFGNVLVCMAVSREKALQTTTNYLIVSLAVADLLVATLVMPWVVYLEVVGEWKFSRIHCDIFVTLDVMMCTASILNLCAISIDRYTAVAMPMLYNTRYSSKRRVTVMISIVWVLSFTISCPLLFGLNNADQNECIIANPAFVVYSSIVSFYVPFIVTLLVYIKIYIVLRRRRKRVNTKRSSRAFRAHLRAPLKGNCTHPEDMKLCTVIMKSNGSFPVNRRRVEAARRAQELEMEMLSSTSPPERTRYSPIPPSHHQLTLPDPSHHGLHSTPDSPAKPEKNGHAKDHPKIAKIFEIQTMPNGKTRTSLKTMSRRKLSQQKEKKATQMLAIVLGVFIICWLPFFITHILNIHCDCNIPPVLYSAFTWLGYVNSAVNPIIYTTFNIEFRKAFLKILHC
UniProt Q99720, whole entry: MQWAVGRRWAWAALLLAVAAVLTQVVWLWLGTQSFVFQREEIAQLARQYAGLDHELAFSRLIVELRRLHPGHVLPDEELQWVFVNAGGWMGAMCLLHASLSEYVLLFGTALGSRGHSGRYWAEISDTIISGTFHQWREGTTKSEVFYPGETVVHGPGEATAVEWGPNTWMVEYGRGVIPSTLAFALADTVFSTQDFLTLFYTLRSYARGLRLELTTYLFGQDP

For `COc1cc2c(cc1O)C1Cc3ccc(OCC4CC4)c(OC)c3CN1CC2` (centres undefined), the Ratio Ki in the test filed under Homo sapiens [1] is 4.5; in the test filed under Homo sapiens [2] it was 4.5; in the test filed under Homo sapiens [3], 5.
With `CCCOc1ccc2c(c1OC)CN1CCc3cc(OC)c(O)cc3C1C2` (centres undefined), the Ratio Ki in the test listed under Homo sapiens [1] worked out at 12.7; in the test listed under Homo sapiens [2], 6.8; in the test filed under Homo sapiens [4], 1.9; in the test filed under Homo sapiens [3], 8.5.
One may read the Ki as the equilibrium dissociation constant of an inhibitor or competing ligand from its target. Low readings indicate higher affinity, high ones lower affinity. `COc1cc2c(cc1O)C1Cc3ccc(OC)c(OC)c3CN1CC2` (centres undefined): the figures for the Ki (at D(2) dopamine receptor; in test [5]) were 102 nM and 106 nM, respectively.

(Values after ChEMBL document CHEMBL3779868, “Tetrahydroprotoberberine alkaloids with dopamine and σ receptor affinity” (Bioorg Med Chem, 2016).)
